## scFv variants of Ab-14 (heavy chain) against a SARS-CoV-2 spike peptide

Values reported by Engelhart et al. 2022, doi:10.1038/s41597-022-01779-4 (FLAb copy).

All variants were tested on one target, the spike HR2 peptide PDVDLGDISGINAS (SARS-CoV-2).

Ab-14 is the parent antibody, in scFv form: VH, then the linker GGGGSGGGGSGGGGS, then VL. The light chain is unchanged in all variants.
VH: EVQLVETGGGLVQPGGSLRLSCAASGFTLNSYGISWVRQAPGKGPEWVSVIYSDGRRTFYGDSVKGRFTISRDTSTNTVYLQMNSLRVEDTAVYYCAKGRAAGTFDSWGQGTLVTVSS
VL: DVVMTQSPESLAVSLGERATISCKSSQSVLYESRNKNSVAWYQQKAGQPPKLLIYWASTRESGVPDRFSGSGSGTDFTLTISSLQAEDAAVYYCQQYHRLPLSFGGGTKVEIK

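The starting antibody came from a phage panning campaign against this peptide. Library AAYL49 holds single substitutions and randomly drawn double and triple substitutions in the CDRs. The scFvs were displayed on barcoded MATa yeast, the peptide on MATalpha yeast. Pairs that bind mate more often; barcode pairs of the diploids are counted by sequencing. The ratio of observed to expected reads was calibrated, replicate by replicate, on BCL2-family standards whose Kd was known from biolayer interferometry. The assay was run in three technical replicates.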

The parent's heavy chain CDRs are GFTLNSYGIS, VIYSDGRRTFYGDSVK, GRAAGTFDS; each variant's own CDRs replace them letter for letter.
All variants listed here change G99 of the VH, counted from its first residue.
Affinities are written as log10 Kd with Kd in nM; a lower number is a better binder.
Replicates are averaged; those with no signal do not enter the mean.
A pair that was not seen in any replicate is written "no signal"; this usually means weak binding, but a binder can also be missed.
The list is sorted by this average, lowest first, undetected variants last.
Parent in this assay: reference entry 0.65, copy in this library 4.11 (one replicate of three).
Three control strains display no target. For library AAYL49, 15% of the pairings with them gave a signal, with a median of 4.06 and one signal in twenty below 2.83, so weak values seen in few replicates may be background.

For GFTLNSYGIS | VIYSDGRRTFYGDSVK | WRAAGTFDS, the assay gave 1.59 (3 of 3 replicates). With GFTLNSYGIS | VIYSDGRRTFYGDSVK | KRAAGTHDS the result was 2.41 (3 of 3 replicates). The variant GFTLNVYGIS | VIYSDGRRRFYGDSVK | RRAAGTFDS showed 3.22 (1 of 3 replicates). For GFTANSYGIS | VIYSIGRRTFYGDSVK | HRAAGTFDS, the assay gave 3.46 (1 of 3 replicates). The variant GFTLNSYGIS | VIYSQGRRTFYGDSVK | CRAHGTFDS gave 3.61 (2 of 3 replicates). The variant GFTLNSKGIS | VIYSDGRRTFYGDSVK | NRAAGTFDS showed 3.69 (2 of 3 replicates). For RFTLNSYGIS | VIISDGRRTFYGDSVK | KRAAGTFDS, the assay gave 3.92 (1 of 3 replicates). With GFTLNSYGIS | VIYSDGRRTFSGDSVK | RRAAPTFDS the result was 4.00 (3 of 3 replicates). The variant GFTNHSYGIS | VIYSDGRRTFYGDSVK | WRAAGTFDS showed 4.04 (2 of 3 replicates).

The variant GFTLNSYGIS | YIYSWGRRTFYGDSVK | SRAAGTFDS gave 4.11 (3 of 3 replicates). The variant GFTLNSYGIS | VIYSDGRRTFYGDSVK | SRAACTFDS gave 4.32 (1 of 3 replicates). The variant GFTLNSYGIS | VIYSDGRREFYGDSVH | PRAAGTFDS showed 4.36 (2 of 3 replicates). For GFTLNSYGSS | VIYSHGRRTFYGDSVK | WRAAGTFDS, the assay gave 4.66 (1 of 3 replicates). With GFTLNSYYIS | VIYSDGRRTFYGDSVK | TRAAGTFDS the result was 4.69 (2 of 3 replicates). The variant GFTLNSKGFS | VIYSDGRRTFYGDSVK | TRAAGTFDS showed 4.75 (3 of 3 replicates). The variant GFTLNSYGIS | VIYSDGRRTFYGRCVK | VRAAGTFDS gave 4.75 (1 of 3 replicates). For GFTLNSYGWS | VIYSDGRRTFYGDKVK | RRAAGTFDS, the assay gave 4.80 (1 of 3 replicates). The variant GFHLNSYGIS | VIYSDGRRTFVGDSVK | KRAAGTFDS showed 4.97 (1 of 3 replicates).

For GFTLNKYGIS | VIYSDGRRTFCGDSVK | SRAAGTFDS, the assay gave 4.98 (3 of 3 replicates). For DFTLNSIGIS | VIYSDGRRTFYGDSVK | QRAAGTFDS, the assay gave 5.09 (1 of 3 replicates). The variant GFTLNSYGIS | VIYSDGRDTQYGDSVK | CRAAGTFDS showed 5.28 (2 of 3 replicates). The variant GFTLNSCEIS | VIYSDGRRTFYGDSVK | HRAAGTFDS showed 5.60 (3 of 3 replicates). The variant GFTLNSYGIS | VIYSDGRRTFYGDSVK | FRIAGTFDS showed no signal (0 of 3 replicates). The variant GFTLNSYGIS | VIYSDGRGTFYGDSWK | ERAAGTFDS showed no signal (0 of 3 replicates). The variant GFTLNSYGIS | FYYSDGRRTFYGDSVK | DRAAGTFDS gave no signal (0 of 3 replicates). With NETLNSYGIS | VIYSDGRRTFYGDSVK | CRAAGTFDS the result was no signal (0 of 3 replicates). The variant GFTLNSYGIS | VIYWDGRRTFSGDSVK | KRAAGTFDS showed no signal (0 of 3 replicates).

The variant GFTLNSYGIS | VIYSDDRRTGYGDSVK | CRAAGTFDS gave no signal (0 of 3 replicates). The variant GFTLPSYGIS | VIYSDGRRTFYGDSVK | HRWAGTFDS showed no signal (0 of 3 replicates). With GFTLNSYTIS | VIYSDGRGTFYGDSVK | HRAAGTFDS the result was no signal (0 of 3 replicates). With GFTLNSYGIS | VIYSDNRRTFYGDDVK | FRAAGTFDS the result was no signal (0 of 3 replicates). The variant GDTLNSYGIS | VIYSDGRRTFNGDSVK | FRAAGTFDS gave no signal (0 of 3 replicates). For GFTLNSYGIS | VIYSDGRREFYGDSTK | MRAAGTFDS, the assay gave no signal (0 of 3 replicates). The variant YFTLNSYGIS | VIYSDGRRTFYGKSVK | FRAAGTFDS gave no signal (0 of 3 replicates). The variant GFTLNSYGIC | VIYSDGRRTFYGDSVK | DRAAGTFKS showed no signal (0 of 3 replicates). The variant GFTLNSYGIS | VIYDDGRRTFYGDSSK | YRAAGTFDS gave no signal (0 of 3 replicates).

The first 3 variants above that were never detected:

The variant GFTLNSYGIS | VIYSDGRRTFYGDSVK | FRIAGTFDS gave no signal (0 of 3 replicates).
The variant GFTLNSYGIS | VIYSDGRGTFYGDSWK | ERAAGTFDS gave no signal (0 of 3 replicates).
The variant GFTLNSYGIS | FYYSDGRRTFYGDSVK | DRAAGTFDS gave no signal (0 of 3 replicates).